Measurements as given in patent US6936585B2, “Corticotropin releasing factor 2 receptor agonists” (priority 2002, dated 2005).

Key:
CRF2R = molecular target: T1, CRF2R (Homo sapiens, UniProt Q13324); assay: CRF2R agonist activation (EC50 / Emax), called comparative CRF binding; assay type: cell-based; details: for Emax: read-out: CRF2R Emax
T1 sequence (Q13324 1-411): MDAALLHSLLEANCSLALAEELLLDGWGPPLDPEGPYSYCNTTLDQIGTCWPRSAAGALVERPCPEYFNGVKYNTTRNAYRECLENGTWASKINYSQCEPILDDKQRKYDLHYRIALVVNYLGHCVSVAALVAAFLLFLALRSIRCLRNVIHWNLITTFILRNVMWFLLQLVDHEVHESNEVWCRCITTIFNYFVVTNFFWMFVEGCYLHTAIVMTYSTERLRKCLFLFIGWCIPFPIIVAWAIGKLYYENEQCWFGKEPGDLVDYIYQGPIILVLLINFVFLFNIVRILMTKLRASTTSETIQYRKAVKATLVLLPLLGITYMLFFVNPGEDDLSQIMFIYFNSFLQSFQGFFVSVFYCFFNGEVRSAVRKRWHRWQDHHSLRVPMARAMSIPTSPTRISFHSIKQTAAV
Outline: (§1)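 Agonism is scored from cAMP rise, assayed in lysates or through CRE-driven reporter expression, after peptide contact with cells bearing human CRF2R or CRF1R, compared against vehicle-treated cells.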

CRF1R = molecular target: T2, CRF1R (Homo sapiens, UniProt P34998); assay: CRF1R agonist activation (EC50 / Emax), called comparative CRF binding; assay type: cell-based; details: for EC50: CRF1R EC50; for Emax: read-out: CRF1R Emax
T2 sequence (P34998 24-415): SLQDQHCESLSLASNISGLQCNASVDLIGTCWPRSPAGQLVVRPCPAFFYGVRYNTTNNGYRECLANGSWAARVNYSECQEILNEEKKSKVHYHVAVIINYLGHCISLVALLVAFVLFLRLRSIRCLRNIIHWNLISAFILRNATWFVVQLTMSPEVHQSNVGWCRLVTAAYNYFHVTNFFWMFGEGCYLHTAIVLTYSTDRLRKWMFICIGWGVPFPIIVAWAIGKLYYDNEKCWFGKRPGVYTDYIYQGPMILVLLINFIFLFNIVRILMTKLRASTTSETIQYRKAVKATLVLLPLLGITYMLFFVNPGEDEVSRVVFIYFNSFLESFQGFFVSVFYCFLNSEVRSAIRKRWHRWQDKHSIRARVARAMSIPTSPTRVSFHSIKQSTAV
Outline: as §1

Row | Structure (SMILES) | EC50 (CRF2R) | Emax (CRF2R) | EC50 (CRF1R) | Emax (CRF1R)
1 | CC[C@H](C)[C@H](NC(=O)[C@@H](NC(=O)[C@H](CC(=O)O)NC(=O)[C@H](CC(C)C)NC(=O)[C@H](CC(C)C)NC(=O)[C@H](CC(C)C)NC(=O)[C@H](C)NC(=O)[C@H](CC(N)=O)NC(=O)[C@H](CC(N)=O)NC(=O)[C@H](C)NC(=O)[C@H](C)NC(=O)[C@H](CCC(N)=O)NC(=O)[C@H](CCC(N)=O)NC(=O)[C@H](CCCCN)NC(=O)[C@H](CCC(=O)O)NC(=O)[C@H](CCCCN)NC(=O)[C@H](CCC(=O)O)NC(=O)[C@H](CCC(N)=O)NC(=O)[C@H](CCCCN)NC(=O)[C@H](CCC(=O)O)NC(=O)[C@@H](NC(=O)[C@H](CCC(=O)O)NC(=O)[C@@H](NC(=O)[C@@H](NC(=O)[C@H](CCCCN)NC(=O)[C@H](CCCNC(=N)N)NC(=O)[C@H](CC(C)C)NC(=O)[C@H](CC(C)C)NC(=O)[C@H](Cc1c[nH]cn1)NC(=O)[C@H](Cc1ccc(O)cc1)NC(=O)[C@@H]1CCCN1C(=O)[C@H](CC(C)C)NC(=O)[C@H](CC(=O)O)NC(=O)[C@@H](NC(=O)[C@H](CO)NC(=O)[C@@H](NC(=O)[C@@H]1CCCN1C(=O)[C@@H]1CCCN1C(=O)CNC(=O)[C@@H]1CCC(=O)N1)[C@@H](C)CC)[C@@H](C)CC)C(C)C)[C@@H](C)CC)[C@@H](C)CC)[C@@H](C)O)C(N)=O [compound 312] | 14.1 nM | 95% | 870 nM | 62%
2 | CC[C@H](C)[C@H](NC(=O)[C@H](CCC(=O)O)NC(=O)[C@@H](NC(=O)[C@H](CCSC)NC(=O)[C@H](CCCCN)NC(=O)[C@H](CCCNC(=N)N)NC(=O)[C@H](CC(C)C)NC(=O)[C@H](CC(C)C)NC(=O)[C@H](CCC(N)=O)NC(=O)[C@H](Cc1ccccc1)NC(=O)[C@@H]1CCCN1C(=O)[C@H](CC(C)C)NC(=O)[C@H](CC(=O)O)NC(=O)[C@@H](NC(=O)[C@H](CO)NC(=O)[C@@H](NC(=O)[C@@H]1CCCN1C(=O)[C@@H]1CCCN1C(=O)CNC(=O)[C@@H]1CCC(=O)N1)[C@@H](C)CC)[C@@H](C)CC)[C@@H](C)CC)C(=O)N[C@@H](CCC(=O)O)C(=O)N[C@@H](CCCCN)C(=O)N[C@@H](CCC(N)=O)C(=O)N[C@@H](CCC(=O)O)C(=O)N[C@@H](CCCCN)C(=O)N[C@@H](CCC(=O)O)C(=O)N[C@@H](CCCCN)C(=O)N[C@@H](CCC(N)=O)C(=O)N[C@@H](CCC(N)=O)C(=O)N[C@@H](C)C(=O)N[C@@H](C)C(=O)N[C@@H](C)C(=O)N[C@@H](CC(N)=O)C(=O)N[C@@H](CCCNC(=N)N)C(=O)N[C@@H](CC(C)C)C(=O)N[C@@H](CC(C)C)C(=O)N[C@@H](CC(C)C)C(=O)N[C@@H](CC(=O)O)C(=O)N[C@H](C(=O)N[C@H](C(N)=O)C(C)C)[C@@H](C)O [compound 15] |  | 97% |  | 86%
3 | CC[C@H](C)[C@H](NC(=O)[C@H](CCC(=O)O)NC(=O)[C@@H](NC(=O)[C@H](CCSC)NC(=O)[C@H](CCCCN)NC(=O)[C@H](CCCNC(=N)N)NC(=O)[C@H](CC(C)C)NC(=O)[C@H](CC(C)C)NC(=O)[C@H](CCC(N)=O)NC(=O)[C@H](Cc1ccccc1)NC(=O)[C@@H]1CCCN1C(=O)[C@H](CC(C)C)NC(=O)[C@H](CC(=O)O)NC(=O)[C@@H](NC(=O)[C@H](CO)NC(=O)[C@@H](NC(=O)[C@@H]1CCCN1C(=O)[C@@H]1CCCN1C(=O)CNC(=O)[C@@H]1CCC(=O)N1)[C@@H](C)CC)[C@@H](C)CC)[C@@H](C)CC)C(=O)N[C@@H](CCC(=O)O)C(=O)N[C@@H](CCCCN)C(=O)N[C@@H](CCC(N)=O)C(=O)N[C@@H](CCC(=O)O)C(=O)N[C@@H](CCCCN)C(=O)N[C@@H](CCC(=O)O)C(=O)N[C@@H](CCCCN)C(=O)N[C@@H](CCC(N)=O)C(=O)N[C@@H](CCC(N)=O)C(=O)N[C@@H](C)C(=O)N[C@H](C(=O)N[C@H](C(=O)N[C@@H](CC(N)=O)C(=O)N[C@@H](C)C(=O)N[C@@H](CCCNC(=N)N)C(=O)N[C@@H](CC(C)C)C(=O)N[C@@H](CC(C)C)C(=O)N[C@@H](C)C(=O)N[C@@H](CCCNC(=N)N)C(=O)N[C@H](C(N)=O)C(C)C)[C@@H](C)O)[C@@H](C)O [compound 23] |  | 100% |  | 82%
4 | CC[C@H](C)[C@H](NC(=O)[C@H](CCCNC(=N)N)NC(=O)[C@H](C)NC(=O)[C@H](CC(N)=O)NC(=O)[C@@H](NC(=O)[C@@H](NC(=O)[C@H](C)NC(=O)[C@H](CCC(N)=O)NC(=O)[C@H](CCC(N)=O)NC(=O)[C@H](CCCCN)NC(=O)[C@H](CCC(=O)O)NC(=O)[C@H](CCCCN)NC(=O)[C@H](CCC(=O)O)NC(=O)[C@H](CCC(N)=O)NC(=O)[C@H](CCCCN)NC(=O)[C@H](CCC(=O)O)NC(=O)[C@@H](NC(=O)[C@H](CCC(=O)O)NC(=O)[C@@H](NC(=O)[C@@H](NC(=O)[C@H](CCCCN)NC(=O)[C@H](CCCNC(=N)N)NC(=O)[C@H](CC(C)C)NC(=O)[C@H](CC(C)C)NC(=O)[C@H](CCC(N)=O)NC(=O)[C@H](CC(C)C)NC(=O)[C@@H]1CCCN1C(=O)[C@H](CC(C)C)NC(=O)[C@H](CC(=O)O)NC(=O)[C@@H](NC(=O)[C@H](CO)NC(=O)[C@@H](NC(=O)[C@@H]1CCCN1C(=O)[C@@H]1CCCN1C(=O)CNC(=O)[C@@H]1CCC(=O)N1)[C@@H](C)CC)[C@@H](C)CC)C(C)C)[C@@H](C)CC)[C@@H](C)CC)[C@@H](C)O)[C@@H](C)O)C(=O)N[C@@H](CC(C)C)C(=O)N[C@@H](C)C(=O)N[C@@H](CCCNC(=N)N)C(=O)N[C@H](C(N)=O)C(C)C [compound 320] |  | 100% |  | 68.8%
5 | CC[C@H](C)[C@H](NC(=O)[C@@H](NC(=O)[C@H](CC(=O)O)NC(=O)[C@H](CC(C)C)NC(=O)[C@H](CC(C)C)NC(=O)[C@H](CC(C)C)NC(=O)[C@H](CCCNC(=N)N)NC(=O)[C@H](CC(N)=O)NC(=O)[C@H](CC(N)=O)NC(=O)[C@H](C)NC(=O)[C@H](C)NC(=O)[C@H](CCC(N)=O)NC(=O)[C@H](CCC(N)=O)NC(=O)[C@H](CCCCN)NC(=O)[C@H](CCC(=O)O)NC(=O)[C@H](CCCCN)NC(=O)[C@H](CCC(=O)O)NC(=O)[C@H](CCC(N)=O)NC(=O)[C@H](CCCCN)NC(=O)[C@H](CCC(=O)O)NC(=O)[C@@H](NC(=O)[C@H](CCC(=O)O)NC(=O)[C@@H](NC(=O)[C@H](CCSC)NC(=O)[C@H](CCCCN)NC(=O)[C@H](CCCNC(=N)N)NC(=O)[C@H](CC(C)C)NC(=O)[C@H](CC(C)C)NC(=O)[C@H](Cc1ccccc1)NC(=O)[C@H](C)NC(=O)[C@@H]1CCCN1C(=O)[C@H](CC(C)C)NC(=O)[C@H](CC(=O)O)NC(=O)[C@@H](NC(=O)[C@H](CO)NC(=O)[C@@H](NC(=O)[C@@H]1CCCN1C(=O)[C@@H]1CCCN1C(=O)CNC(=O)[C@@H]1CCC(=O)N1)[C@@H](C)CC)[C@@H](C)CC)[C@@H](C)CC)[C@@H](C)CC)[C@@H](C)O)C(N)=O [compound 222] | 9.4 nM | 100% | 384 nM | 95%
6 | CC[C@H](C)[C@H](NC(=O)[C@@H](NC(=O)[C@H](C)NC(=O)[C@H](CC(C)C)NC(=O)[C@H](CC(C)C)NC(=O)[C@H](CC(C)C)NC(=O)[C@H](C)NC(=O)[C@H](CC(N)=O)NC(=O)[C@H](CC(N)=O)NC(=O)[C@H](C)NC(=O)[C@H](C)NC(=O)[C@H](CCC(N)=O)NC(=O)[C@H](CCC(N)=O)NC(=O)[C@H](CCCCN)NC(=O)[C@H](CCC(=O)O)NC(=O)[C@H](CCCCN)NC(=O)[C@H](CCC(=O)O)NC(=O)[C@H](CCC(N)=O)NC(=O)[C@H](CCCCN)NC(=O)[C@H](CCC(=O)O)NC(=O)[C@@H](NC(=O)[C@H](CCC(=O)O)NC(=O)[C@@H](NC(=O)[C@@H](NC(=O)[C@H](CCCCN)NC(=O)[C@H](CCCNC(=N)N)NC(=O)[C@H](CC(C)C)NC(=O)[C@H](CC(C)C)NC(=O)[C@@H](NC(=O)[C@H](CCC(N)=O)NC(=O)[C@@H]1CCCN1C(=O)[C@H](CC(C)C)NC(=O)[C@H](CC(=O)O)NC(=O)[C@@H](NC(=O)[C@H](CO)NC(=O)[C@@H](NC(=O)[C@@H]1CCCN1C(=O)[C@@H]1CCCN1C(=O)CNC(=O)[C@@H]1CCC(=O)N1)[C@@H](C)CC)[C@@H](C)CC)[C@@H](C)CC)C(C)C)[C@@H](C)CC)[C@@H](C)CC)[C@@H](C)O)C(N)=O [compound 299] |  | 71.5% |  | 10.2%
